Measured affinities in a library of Ab-14 light chain variants

The measurements come from Li et al. 2023 (doi:10.1038/s41467-023-39022-2) through the FLAb antibody collection.

Antigen: PDVDLGDISGINAS, a 14-residue peptide of the SARS-CoV-2 spike HR2 region.

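Phage display of a naive human antibody library on the peptide gave the parent. This is the validation round: designs drawn from the data on random variants, tested in the same kind of assay. Several design methods are mixed in this list. The assay is AlphaSeq: two haploid yeast populations carry antibody and antigen on their surface. Binding brings cells together so that they mate, and sequencing counts the barcode pairs among the diploids. Scores were corrected for input abundance and mapped to Kd with protein pairs of known affinity run in the same pool. There are six technical replicates.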

Parent scFv Ab-14: VH joined to VL by a 15-residue (Gly4Ser)3 linker. Changes lie in the light chain CDRs alone.
VH: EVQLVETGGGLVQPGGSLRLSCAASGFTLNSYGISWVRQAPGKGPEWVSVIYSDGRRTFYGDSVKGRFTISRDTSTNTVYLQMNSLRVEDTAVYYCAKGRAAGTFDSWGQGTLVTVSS
VL: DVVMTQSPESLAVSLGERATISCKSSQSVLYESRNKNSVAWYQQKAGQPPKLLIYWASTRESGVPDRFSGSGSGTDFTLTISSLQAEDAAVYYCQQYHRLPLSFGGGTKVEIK

Each variant is given by its three light chain CDRs, as the data file delimits them; those of the parent are KSSQSVLYESRNKNSVA, WASTRES, QQYHRLPLS. Values are log10 of the apparent Kd in nM; lower means stronger binding. Replicates are averaged; those with no signal do not enter the mean. "n.d." means that the variant was in the library but no mating with the target was seen in that replicate; the authors take this as a sign of poor binding, and no number exists. Entries are sorted by rising average, undetected variants last.

| # | replicates, log10 nM | mean log10 Kd (nM) | empty controls | CDR-L1 | CDR-L2 | CDR-L3 |
|---|---|---|---|---|---|---|
| 1 | n.d. / -0.69 / -1.00 / n.d. / -0.40 / n.d. | -0.70 | 0 of 18 | TLLYGVTENAKPGKAIA | GNEERAQ | QQYFRLPLS |
| 2 | -0.22 / -0.56 / -0.35 / -0.72 / -0.37 / -0.17 | -0.40 | 0 of 18 | KFSQSVLYESRTANSVA | NASTRES | QQYHRLPLS |
| 3 | -0.19 / -0.19 / -0.08 / -0.30 / -0.32 / -0.27 | -0.23 | 1 of 18 (2.42) | KTPQGDLYESRNKNSVA | GASVRES | QQYHRLPLS |
| 4 | -0.01 / -0.28 / -0.20 / -0.29 / -0.31 / -0.16 | -0.21 | 1 of 18 (2.27) | KISQSVLYESRNKNSVA | NASTRLS | QQYHRLPLS |
| 5 | 0.02 / -0.02 / -0.38 / -0.33 / -0.37 / 0.05 | -0.17 | 1 of 18 (4.29) | KLQQSQEYESRNKNSVA | DASQRLV | QAYHRLPLS |
| 6 | -0.02 / -0.23 / -0.02 / -0.13 / -0.02 / -0.05 | -0.08 | 1 of 18 (3.33) | KLSQSVLYESRNKNAVA | NASTREQ | QQYHRLPLS |
| 7 | -0.03 / 0.02 / -0.12 / -0.08 / -0.08 / 0.19 | -0.02 | 1 of 18 (4.22) | KLGSMTAIESRNNNSVA | QMDTRES | QQYDRLPLS |
| 8 | 0.04 / 0.01 / -0.05 / 0.02 / -0.12 / 0.46 | 0.06 | 1 of 18 (2.03) | KLDQSWWRESRNKNSVA | QASTREQ | QQYHRLPLS |
| 9 | 0.03 / 0.01 / 0.08 / -0.08 / -0.05 / 0.39 | 0.06 | 2 of 18 (2.28) | KLSQSQLYESRAKNSVA | NASQRES | QQYHRLPLS |
| 10 | 0.02 / 0.06 / -0.05 / 0.06 / 0.13 / 0.22 | 0.07 | 1 of 18 (2.33) | KSSVSGLYEARNKNSVA | NASTRES | QQYHRLPLS |
| 11 | 0.20 / 0.35 / 0.10 / -0.02 / 0.13 / 0.10 | 0.14 | 4 of 18 (2.53) | TLGQSSLMESRNKNNVA | QMSTREK | QQYDRLPLS |
| 12 | 0.29 / 0.16 / -0.02 / 0.07 / 0.04 / 0.41 | 0.16 | 2 of 18 (4.15) | KSSQSFLYESRNVNSVA | GASTRDS | QQYHRLPLS |
| 13 | 0.36 / 0.16 / 0.06 / -0.01 / 0.39 / 0.21 | 0.20 | 1 of 18 (1.49) | TIAQSMLYLSNTKNSIA | QAETRES | QQYHRLPIS |
| 14 | 0.33 / 0.10 / 0.17 / 0.12 / 0.27 / 0.35 | 0.22 | 0 of 18 | KSGQGVLYESRNKNSVA | GASTRES | QQYHRLPLC |
| 15 | 0.52 / 0.02 / 0.27 / 0.24 / 0.04 / 0.42 | 0.25 | 1 of 18 (2.56) | KLMQSSLYDSRNKNSVA | QASTRMW | QQYHRLPLS |
| 16 | 0.41 / 0.40 / 0.76 / 0.60 / 0.39 / 0.76 | 0.55 | 2 of 18 (2.50) | QLQLQPQFGANAQHSIA | DVSEKDM | QQYARLPLH |
| 17 | 0.44 / 0.53 / 0.46 / 0.33 / 0.71 / 0.86 | 0.56 | 1 of 18 (2.49) | KSSMSPLYESRNTNSVA | EASTRES | QQYHRLPLS |
| 18 | 0.96 / 0.31 / 0.43 / 0.35 / 0.50 / 0.80 | 0.56 | 1 of 18 (2.73) | KSSDSNTYESRNKASVA | SASMRES | QQYHRLPLS |
| 19 | 0.72 / 0.65 / 0.83 / 0.63 / 0.48 / 0.58 | 0.65 | 1 of 18 (3.27) | HVPNYTENFMSAKQNIA | DQSAKTS | QQYDRLPLA |
| 20 | 0.89 / 0.53 / 0.55 / 0.68 / 0.34 / 0.99 | 0.66 | 1 of 18 (3.36) | KLSQSVDYESRQKNSVA | NASTRLS | QQYHRLPLS |
| 21 | 0.70 / 0.81 / 0.71 / 0.76 / 0.74 / 0.88 | 0.77 | 4 of 18 (2.31) | ALTNEFESVSHHKNSIA | HTDQRCM | QQYATLPLS |
| 22 | 1.14 / 0.78 / 0.90 / 0.83 / 0.80 / 0.71 | 0.86 | 1 of 18 (2.95) | KISYMGEHFSTNHSAIA | QASEREQ | QQYHRLPIS |
| 23 | 1.14 / 0.54 / 0.65 / 0.86 / 1.36 / 1.19 | 0.96 | 0 of 18 | MFSQLTYTGSRTRNAVA | QASTREN | QQYHHLPLS |
| 24 | 0.89 / 1.14 / 1.20 / 0.61 / 0.62 / 1.77 | 1.04 | 0 of 18 | SLTSHEEEKEGAEASVA | NAVMLES | QQYHRLPLM |
| 25 | 1.16 / 0.96 / 1.36 / 1.20 / 1.53 / 1.40 | 1.27 | 2 of 18 (3.18) | KISQSVLFFGHAINSVA | EMETREN | QQYDRLPLS |
| 26 | n.d. / n.d. / n.d. / 1.29 / n.d. / n.d. | 1.29 | 0 of 18 | MVSQLMLWGLHAKNSIA | EAQMRLN | QQYDRLPLF |
| 27 | 1.25 / 1.96 / 1.28 / 0.80 / 1.63 / 1.97 | 1.48 | 0 of 18 | KVSEFMRGLMMRKDNIA | DNNTRQN | QQYDRLPLS |
| 28 | 1.67 / 1.92 / 0.98 / 0.65 / 1.64 / 2.35 | 1.53 | 0 of 18 | HLNGEWNHGANRDNNIA | EAQLVAA | QDYFRLPII |
| 29 | 1.02 / 2.64 / 1.31 / 0.85 / 1.68 / 1.74 | 1.54 | 0 of 18 | MISQMYNMGQFAINSVA | QASERNT | QQYDRLPLT |
| 30 | n.d. / 1.99 / 1.40 / 1.06 / n.d. / 2.08 | 1.63 | 0 of 18 | MISQILNMGQFAINSVA | QASIRNE | QQYDRLPLT |
| 31 | 1.74 / 1.42 / n.d. / 1.21 / 2.41 / 1.84 | 1.72 | 0 of 18 | HITYGMMLAGRHSSSIA | QAETRAK | QQYDRLPLI |
| 32 | 2.61 / 0.73 / 2.39 / 2.25 / 2.00 / 1.58 | 1.93 | 2 of 18 (2.30) | KSSQSYLYENRNKNSVA | WASTRCS | QQYHRFPLS |
| 33 | 4.42 / 1.97 / 1.78 / 1.19 / 0.98 / 1.43 | 1.96 | 2 of 18 (2.33) | KSSQSVLKEDENVNSVA | WASTRPS | QQYHRLPLS |
| 34 | n.d. / 1.97 / n.d. / n.d. / n.d. / n.d. | 1.97 | 1 of 18 (2.05) | KFSQSVLYESRNKNSVA | KASTRES | QQCHRLPLS |
| 35 | 0.98 / n.d. / 2.65 / 1.65 / n.d. / 2.70 | 1.99 | 1 of 18 (2.45) | KSSQAVLYESRNKNSVA | GASTRES | QQYHRLPTS |
| 36 | 1.69 / 2.41 / 3.02 / 1.74 / n.d. / n.d. | 2.21 | 0 of 18 | KISSLTMYESVEKNNIA | EMSTRPS | QSYHRLPLS |
| 37 | 2.57 / n.d. / 1.84 / 2.13 / 1.89 / 2.87 | 2.26 | 0 of 18 | TISASTYWESFNKNSVA | QTSTREE | QDYDRLPLS |
| 38 | n.d. / n.d. / n.d. / 2.50 / n.d. / n.d. | 2.50 | 1 of 18 (2.02) | KLSIFQQVESINKSNVA | EMVTRES | QQYDRLPLS |
| 39 | 1.40 / 1.73 / 2.71 / n.d. / 3.56 / 3.12 | 2.50 | 1 of 18 (2.00) | KSSQSFLYESRNKNSVA | WASTRAS | QQYHRLPLK |
| 40 | n.d. / n.d. / n.d. / 2.50 / n.d. / 2.91 | 2.71 | 1 of 18 (3.11) | KSSQSWLYESRYKNSVA | WASTRES | QQYHRLPLS |
| 41 | n.d. / 3.23 / n.d. / n.d. / n.d. / n.d. | 3.23 | 0 of 18 | MISDMGLHDMRIQNSVA | NNSTREA | QQYDRLPLS |
| 42 | n.d. / n.d. / n.d. / n.d. / n.d. / n.d. | n.d. | 0 of 18 | KSSTSVPYESRNKNSVA | WASTRES | QQYHRLPLH |
| 43 | n.d. / n.d. / n.d. / n.d. / n.d. / n.d. | n.d. | 1 of 18 (2.60) | KSSQSVLYESRNKNSVA | WASTRES | QQYHRYPLS |

The opening 3 entries, copied out:

{"CDR-L1": "TLLYGVTENAKPGKAIA", "CDR-L2": "GNEERAQ", "CDR-L3": "QQYFRLPLS", "replicates, log10 nM": "n.d. / -0.69 / -1.00 / n.d. / -0.40 / n.d.", "mean log10 Kd (nM)": "-0.70", "empty controls": "0 of 18"}
{"CDR-L1": "KFSQSVLYESRTANSVA", "CDR-L2": "NASTRES", "CDR-L3": "QQYHRLPLS", "replicates, log10 nM": "-0.22 / -0.56 / -0.35 / -0.72 / -0.37 / -0.17", "mean log10 Kd (nM)": "-0.40", "empty controls": "0 of 18"}
{"CDR-L1": "KTPQGDLYESRNKNSVA", "CDR-L2": "GASVRES", "CDR-L3": "QQYHRLPLS", "replicates, log10 nM": "-0.19 / -0.19 / -0.08 / -0.30 / -0.32 / -0.27", "mean log10 Kd (nM)": "-0.23", "empty controls": "1 of 18 (2.42)"}

Background: pairings of all light chain designs with three empty control strains gave a value in 4% of cases (median 2.64, 5th percentile 1.59). Values in that range, when seen in few replicates, are hard to tell from nonspecific mating. For each scFv, signals with the empty controls are counted beside the result, with their mean in brackets. The authors' rule: three or more of the six replicates give a measured affinity, fewer mean a poor binder. The range of this assay differs from that of the first round, and the authors advise against merging the two. The parent sequence was in this pool as ten entries: three were never detected, three once, and four in most replicates, with averages from 0.34 to 2.37.